The test system of this assay is Mus musculus. As to the kind of experiment: Anticonvulsant activity administered intra peritoneally to mouse for protective index of subcutaneous metrazol test. Format: functional.

For the compound `CCCC(CCC)C(=O)O` [VALPROIC ACID], the Activity was 1.8.

The values are drawn from ChEMBL document CHEMBL1138683 (J Med Chem, 2004).
